Results from US9532941B2, “Method for treatment of hair loss with a combination of natural ingredients” (priority 2011, dated 2017).

Assay: Solubility of EGCG in updated formulation
Conditions: EGCG about 75 to 150 mg/ml in updated formulation

epigallocatechin-3-gallate [EGCG]
solubility in formulation: not to be feasible due to solubility problems
